Laboratory results published in patent publication US20040121946A9, “Inducing cellular immune responses to her2/neu using peptide and nucleic acid compositions” (priority 2002, published 2004).

System: tumor targets that endogenously express HER2/neu (colon adenocarcinoma cell lines SW403 and HT-29)
Assay: Primary in vitro CTL induction, recognition of wild-type peptide and endogenous tumor targets (51Cr release / in situ IFNγ ELISA)
Format: cell-based, human
Conditions: positive/tested

CC[C@H](C)[C@H](NC(=O)CNC(=O)[C@H](Cc1ccccc1)NC(=O)[C@@H](NC(=O)[C@@H](N)C(C)C)C(C)C)C(=O)N[C@@H](CC(C)C)C(=O)N[C@H](C(=O)N[C@@H](CCCCN)C(=O)N[C@@H](CCCNC(=N)N)C(=O)O)[C@@H](C)CC
CTL Tumor (recognition of tumor targets): 0/1 | CTL Wild-type (recognition of wild-type peptide): 1/3
